# scFv variants of Ab-14 (light chain) against a SARS-CoV-2 spike peptide

The target is the same throughout: PDVDLGDISGINAS, from the HR2 region of SARS-CoV-2 spike.

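Phage display of a naive human antibody library on the peptide gave the parent. The variants were designed computationally from a first round of random CDR variants and then made and measured. Their group label is 14L_GP_HC (GP: Gaussian process model; HC: hill climbing; a sequence that several methods proposed may carry one label only). AlphaSeq pools MATa yeast showing the antibodies with MATalpha yeast showing the peptide. Pairs that bind mate more often; barcode pairs of the diploids are counted by sequencing. The ratio of observed to expected reads was calibrated, replicate by replicate, on BCL2-family standards whose Kd was known from biolayer interferometry. The assay was run in six technical replicates.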

Ab-14 is the parent antibody, in scFv form: VH, then the linker GGGGSGGGGSGGGGS, then VL. The heavy chain is unchanged in all variants.
VH: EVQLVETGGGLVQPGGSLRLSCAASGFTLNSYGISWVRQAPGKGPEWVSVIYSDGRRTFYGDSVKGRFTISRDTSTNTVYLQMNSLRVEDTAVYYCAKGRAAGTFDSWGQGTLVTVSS
VL: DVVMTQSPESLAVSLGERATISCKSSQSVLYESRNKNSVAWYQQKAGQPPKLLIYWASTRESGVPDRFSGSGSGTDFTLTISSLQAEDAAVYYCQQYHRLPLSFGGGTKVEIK

Substitutions are numbered in sequence along the VL above, starting at 1 (not Kabat).
The read-out is the apparent dissociation constant on a log10 scale (nM): the lower, the stronger.
The authors averaged sequences with at least three values out of six and counted those with two or fewer as poor binders.

{"changes": "S25L S26R V29T S38E W56S", "log10 Kd, replicates": "0.94 / 1.36 / 3.02 / 1.08 / 1.77 / 1.75", "control signals": "0 of 18"}
{"changes": "S25L S28G E32Q W56G", "log10 Kd, replicates": "0.17 / -0.03 / -0.05 / -0.06 / -0.06 / 0.13", "control signals": "2 of 18 (2.73)"}
{"changes": "S25L S26E S28G N37G W56G T59V", "log10 Kd, replicates": "-0.17 / -0.38 / -0.46 / -0.54 / -0.35 / -0.12", "control signals": "3 of 18 (3.90)"}
{"changes": "S25F N35M W56N S58V S62T S103W", "log10 Kd, replicates": "0.79 / 0.84 / 0.70 / 0.51 / 0.83 / 1.02", "control signals": "0 of 18"}
{"changes": "S25L V29W W56H S62Q", "log10 Kd, replicates": "0.14 / 0.07 / 0.29 / 0.24 / 0.23 / 0.25", "control signals": "0 of 18"}
{"changes": "S25L Q27M W56N S62E", "log10 Kd, replicates": "-0.15 / -0.34 / -0.34 / -0.46 / -0.42 / -0.37", "control signals": "2 of 18 (2.81)"}
{"changes": "S25M S26E S28G W56Q T59V", "log10 Kd, replicates": "0.52 / 0.34 / 0.30 / 0.18 / 0.37 / 0.36", "control signals": "2 of 18 (2.54)"}
{"changes": "S25L S26P V29T E61L", "log10 Kd, replicates": "0.36 / 0.04 / 0.06 / 0.13 / 0.25 / 0.23", "control signals": "1 of 18 (2.03)"}
{"changes": "V29E K36F W56D", "log10 Kd, replicates": "-0.01 / 0.11 / 0.13 / -0.07 / 0.25 / 0.40", "control signals": "1 of 18 (1.97)"}
{"changes": "S26L S28Q V29Q L30E W56H S62D", "log10 Kd, replicates": "-0.02 / -0.01 / -0.17 / 0.04 / -0.33 / -0.22", "control signals": "0 of 18"}
{"changes": "S25L S26Q V29T L30P W56S S62E", "log10 Kd, replicates": "0.13 / -0.19 / -0.22 / -0.26 / -0.40 / -0.12", "control signals": "1 of 18 (2.41)"}
{"changes": "S25A V29W L30I W56G", "log10 Kd, replicates": "-0.29 / -0.30 / -0.42 / -0.46 / -0.32 / -0.14", "control signals": "1 of 18 (2.21)"}
{"changes": "V29W K36F N37G W56G", "log10 Kd, replicates": "0.92 / 0.34 / 0.64 / 0.26 / 0.37 / 0.87", "control signals": "0 of 18"}
{"changes": "S25Q S33D R34V W56D", "log10 Kd, replicates": "0.38 / 0.39 / 0.14 / 0.32 / 0.49 / 0.40", "control signals": "0 of 18"}
{"changes": "S25L V29Q E32D W56N", "log10 Kd, replicates": "0.52 / 0.34 / 0.23 / 0.10 / 0.32 / 0.40", "control signals": "3 of 18 (2.98)"}
{"changes": "Q27I V29Y S33K W56E", "log10 Kd, replicates": "0.59 / 0.52 / 0.71 / 0.57 / 0.86 / 0.81", "control signals": "1 of 18 (4.46)"}
{"changes": "S25V S28E W56D", "log10 Kd, replicates": "-0.27 / -0.52 / -0.39 / -0.71 / -0.53 / -0.22", "control signals": "1 of 18 (3.07)"}
{"changes": "S26G S28G V29G W56G T59Q", "log10 Kd, replicates": "0.36 / 0.45 / -0.05 / -0.16 / -0.31 / 0.13", "control signals": "0 of 18"}
{"changes": "V29F K36V W56G", "log10 Kd, replicates": "0.07 / 0.00 / -0.29 / -0.15 / 0.02 / 0.18", "control signals": "1 of 18 (2.58)"}
{"changes": "S25Q R34A W56D", "log10 Kd, replicates": "0.04 / 0.01 / -0.02 / -0.16 / -0.08 / 0.05", "control signals": "0 of 18"}
{"changes": "S26L Q27W R34G W56H S62D", "log10 Kd, replicates": "0.17 / 0.70 / 0.15 / 0.72 / 0.40 / 0.21", "control signals": "0 of 18"}
{"changes": "S25L S26R V29T W56H E61L", "log10 Kd, replicates": "0.66 / 0.42 / 0.52 / 0.43 / 0.48 / 0.64", "control signals": "1 of 18 (2.59)"}
{"changes": "L30D Y31I W56D", "log10 Kd, replicates": "0.02 / -0.07 / -0.18 / -0.14 / -0.40 / -0.01", "control signals": "1 of 18 (2.61)"}
{"changes": "Q27I V29Y R34E N37R W56N T59Q", "log10 Kd, replicates": "0.89 / 0.75 / 0.49 / 0.65 / 1.24 / 0.45", "control signals": "0 of 18"}
{"changes": "V29W W56G S62V", "log10 Kd, replicates": "-0.08 / -0.21 / -0.14 / -0.30 / -0.09 / 0.00", "control signals": "0 of 18"}
{"changes": "S25F S26L V29W W56H S62Q", "log10 Kd, replicates": "0.61 / 0.35 / 0.48 / 0.48 / 0.69 / 0.59", "control signals": "1 of 18 (2.81)"}
{"changes": "Q27I L30E R34M W56E", "log10 Kd, replicates": "0.25 / 0.27 / 0.24 / 0.18 / 0.21 / 0.23", "control signals": "2 of 18 (3.15)"}
{"changes": "S25Q L30K Y31F W56D", "log10 Kd, replicates": "-0.64 / -0.20 / 0.37 / 0.41 / 0.17 / 0.45", "control signals": "0 of 18"}
{"changes": "S25Q S33W W56E", "log10 Kd, replicates": "0.94 / 0.32 / 0.60 / 0.25 / 0.96 / 0.63", "control signals": "1 of 18 (2.20)"}

Extract of 2 entries:

| changes | log10 Kd, replicates | control signals |
|---|---|---|
| S26L S28Q V29Q L30E W56H S62D | -0.02 / -0.01 / -0.17 / 0.04 / -0.33 / -0.22 | 0 of 18 |
| S25Q S33W W56E | 0.94 / 0.32 / 0.60 / 0.25 / 0.96 / 0.63 | 1 of 18 (2.20) |

Of ten entries with the parent sequence, four were seen in most replicates (averages 0.34 to 2.37), three in one and three in none, so single entries are noisy.
The range of this assay differs from that of the first round, and the authors advise against merging the two.
As a blank, each scFv also met three strains without target: over all light chain designs, 4% of these pairings were detected, typically at 2.64 and seldom below 1.59. The control count says in how many pairings with the empty strains this scFv gave a signal, with their mean in brackets.

From the AlphaSeq antibody data of Li et al. 2023 (doi:10.1038/s41467-023-39022-2), copy in the FLAb collection.